{"source": "paper PMC3665789", "about": "(PLoS ONE, 2013)", "key": {"[1]": {"system": "HSV", "settings": "Tables 3 and 4"}, "[2]": {"system": "herpes simplex virus (HSV)", "parameters": "method as in PMID 20082397", "settings": "cited from earlier work"}, "[3]": {"system": "neuropathic pain", "parameters": "method as in PMID 20082397", "settings": "cited from earlier work"}}, "data": [{"smiles": "CC(C)C[C@@H]1NC(=O)[C@]23CSC[C@H](NC(=O)[C@H](C)NC(=O)[C@H](Cc4ccccc4)NC1=O)C(=O)N[C@H](C(=O)O)CSSC[C@H](NC(=O)[C@@H]1CSC[C@]4(C[C@H](N)C(=O)N[C@@H](CC(=O)O)C(=O)N[C@@H](Cc5c[nH]c6ccccc56)C(=O)N4)C(=O)N[C@@H](CC(C)C)C(=O)N[C@@H](Cc4c[nH]c5ccccc45)C(=O)N[C@@H](CCC(=O)O)C(=O)N1)C(=O)N[C@@H](C2)C(=O)N[C@@H]([C@@H](C)O)C(=O)NCC(=O)N3", "note": "[LabyA2, labyrinthopeptin A2]", "values": [{"measurement": "fold less potent than LabyA1 against HSV (on average)", "setting": "[1]", "result": "at least 10 fold"}, {"measurement": "anti-herpetic activity", "setting": "[2]", "result": "moderate anti-herpetic activity"}, {"measurement": "activity in a neuropathic pain mouse model", "setting": "[3]", "result": "pronounced activity"}]}]}
